T1: human GITR (human, UniProt Q9Y5U5 26-241)
T1 sequence (looked up): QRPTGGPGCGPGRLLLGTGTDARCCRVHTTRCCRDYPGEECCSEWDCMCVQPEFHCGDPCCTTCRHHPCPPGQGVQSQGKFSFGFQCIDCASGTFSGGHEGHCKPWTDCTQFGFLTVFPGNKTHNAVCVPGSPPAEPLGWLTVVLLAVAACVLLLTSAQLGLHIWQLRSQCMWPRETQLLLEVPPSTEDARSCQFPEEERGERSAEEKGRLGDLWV

B1: GITR.6.G2.G1f (antibody, human IgG2, kappa)
heavy: QVQLVESGGGVVQPGRSLRLSCAASGFTFSSYGMHWVRQAPGKGLEWVAVIWYEGSNKYYADSVKGRFTISRDNSKNTLYLQMNSLRAEDTAVYYCARGGSMVRGDYYYGMDVWGQGTTVTVSSASTKGPSVFPLAPCSRSTSESTAALGCLVKDYFPEPVTVSWNSGALTSGVHTFPAVLQSSGLYSLSSVVTVPSSNFGTQTYTCNVDHKPSNTKVDKTVERKCCVE[human IgG1 Fc skipped]
light: AIQLTQSPSSLSASVGDRVTITCRASQGISSALAWYQQKPGKAPKLLIYDASSLESGVPSRFSGSGSGTDFTLTISSLQPEDFATYYCQQFNSYPYTFGQGTKLEIKRTVAAPSVFIFPPSDEQLKSGTASVVCLLNNFYPREAKVQWKVDNALQSGNSQESVTEQDSKDSTYSLSSTLTLSKADYEKHKVYACEVTHQGLSSPVTKSFNRGEC
B2: GITR.6-IgG1f (antibody)
heavy: QVQLVESGGGVVQPGRSLRLSCAASGFTFSSYGMHWVRQAPGKGLEWVAVIWYEGSNKYYADSVKGRFTISRDNSKNTLYLQMNSLRAEDTAVYYCARGGSMVRGDYYYGMDVWGQGTTVTVSSASTKGPSVFPLAPSSKSTSGGTAALGCLVKDYFPEPVTVSWNSGALTSGVHTFPAVLQSSGLYSLSSVVTVPSSSLGTQTYICNVNHKPSNTKVDKRV[human IgG1 Fc skipped]
light: B1 light

Molecular target: T1, human GITR
Assay: cell-based or functional assay

Row | Binder | NFKB signaling in TCR activated CD4+ T cells, EC50 | NFKB signaling in TCR activated CD4+ T cells, Emax | NFKB signaling in TCR activated CD8+ T cells, EC50 | NFKB signaling in TCR activated CD8+ T cells, Emax
1 | B1 | 9 nM | 100% | 3.77 nM | 92%
2 | B2 | 7.3 nM | 10.8% | 20.1 nM | 27%

From patent US20220106400A1 (Bristol-Myers Squibb, published 2022)
